Results reported in US20250090520A1, “DERIVATIVES OF TURBINMICIN AS ANTIFUNGAL AGENTS” (Wisconsin Alumni Research Foundation, priority 2021, published 2025).

What was measured:
Assay in all cases: In vitro MIC susceptibility testing, broth microdilution
[1] = tested on: C. auris B 11211; assay type: cell-based, Candida auris; conditions: Candidozyma auris, B11211, 24 h, read-out: MIC C. auris B11211
Protocol: In vitro MIC susceptibility testing. Turbinmicin analogs of the present disclosure were tested for antifungal activity against four Candida isolates, C. albicans K-1, C. tropicalis 98-234, C. auris B 11211, and C. glabrata 4720, and MICs were determined using a broth microdilution method for yeasts. A turbinmicin analog was dissolved in DMSO, serially diluted to 10 concentrations (0.125-64 μg/mL), and tested in a 96-well plate in RPMI medium. […] Six untreated media controls were included on each plate. The plates were incubated at 33° C. for 24 hours. The MICs were determined as the lowest concentration that inhibited visible growth. The MICs were read at 24.

[2] = tested on: C. glabrata 4720; assay type: cell-based, Candida glabrata; conditions: Nakaseomyces glabratus, 4720, 24 h, read-out: MIC C. glabrata 4720
Protocol: (§1) In vitro MIC susceptibility testing. […] Six untreated media controls were included on each plate. The plates were incubated at 33° C. for 24 hours. The MICs were determined as the lowest concentration that inhibited visible growth. The MICs were read at 24.

[3] = tested on: C. albicans K-1; assay type: cell-based; conditions: Candida albicans, K1, 24 h, read-out: MIC C. albicans K-1
Protocol: as §1

[4] = tested on: C. tropicalis 98-234; assay type: cell-based; conditions: Candida tropicalis, 98234, 24 h, read-out: MIC C. tropicalis 98-234
Protocol: as §1

Measured: MIC

C/C=C/C=C/C=C/C(=O)O[C@@H]1C=CC[C@H]2/C(=N/Cc3ccncc3)c3c(O)c4c5c(c3O[C@H]12)OCO[C@@H]5C[C@@H]1C(=O)c2cc(C)[nH]c(=O)c2C(=O)[C@]41O [Compound T14]
> 4 µg/mL: all assays above
